{
  "source": "patent US20240024308A1",
  "about": "“TLR7/8 ANTAGONISTS FOR THE TREATMENT OF CORONAVIRUS INFECTIONS” (Merck Healthcare KGaA, priority 2020, published 2024)",
  "assay": "Phase I healthy volunteer study, pharmacokinetics",
  "data": [
    {"smiles": "N#Cc1ccc(N2C[C@H](N)C[C@H](C(F)(F)F)C2)c2cccnc12", "note": "(single isomer, unassigned) [Compound 3]", "values": [
      {"measurement": "dose proportionality of pharmacokinetics (PK)", "setting": "Phase I healthy volunteers", "result": "dose-proportional"},
      {"measurement": "metabolism", "setting": "not the common CYP450 enzymes", "result": "mainly metabolized by aldehyde oxidase"}
    ]}
  ]
}
